Reference: US20240197735A1, “METHODS AND COMPOSITIONS COMPRISING A BRAF INHIBITOR AND A PD-1 BINDING ANTAGONIST” (Hoffmann-La Roche Inc., priority 2021, published 2024)

Test system: P-ERK in HCT116 cells expressing WT BRAF
Assay: HTRF assay for P-ERK determination in HCT116 cells (paradoxical BRAF activation)
Assay type: cell-based
Conditions: HCT-116 cells; maximum P-ERK signal as percentage of highest dabrafenib signal within dose range tested
Source text: A375 is a cellular cancer model expressing V600E mutated BRAF and HCT116 a cellular cancer model expressing WT BRAF. First generation BRAF inhibitors such as e.g. dabrafenib induce a paradox effect on tumour cells in that they inhibit the growth of V600E mutated BRAF cells (such as e.g. A375), while they activate growth in WT BRAF cells (such as e.g. HCT 116). ERK 1,2 phosphorylation (terminal member of the phosphorylation cascade of the MAPK pathway) is hereafter reported as main readout for the activation status of the MAPK pathway. Prior to the assay, A375 and HCT116 cell lines are maintained in DMEM no-phenol red medium supplemented with 10% fetal bovine serum (FBS). Following compound treatment, P-ERK levels are determined by measuring FRET fluorescence signal induced by selective binding of 2 antibodies provided in the mentioned kit (Cisbio cat #64AERPEH) on ERK protein when phosphorylated at Thr202/Tyr204. […]
The plate is then analyzed and fluorescence emission value collected through a Pherastast FSX (BMG Labtech) apparatus at […].
The obtained fluorescence values are processed according to the formula Ratio=[…]*10000 then the average of the ratio on the blank is subtracted to all values. […]

Compound: CCCS(=O)(=O)Nc1ccc(F)c(Oc2ccc3ncn(C)c(=O)c3c2)c1C#N [AR-25]
- Percentage of Maximum paradox inducing effect from dabrafenib: 103%
